Results as given in patent US10131663B2, “Chemical compounds” (AstraZeneca AB, priority 2016, dated 2018).

The chains behind the UniProt entries cited, without tags or fusion partners. Where a name states a change or a piece, a line headed by the entry shows the natural chain unless it says otherwise. Residues count along the entry.
UniProt Q12809: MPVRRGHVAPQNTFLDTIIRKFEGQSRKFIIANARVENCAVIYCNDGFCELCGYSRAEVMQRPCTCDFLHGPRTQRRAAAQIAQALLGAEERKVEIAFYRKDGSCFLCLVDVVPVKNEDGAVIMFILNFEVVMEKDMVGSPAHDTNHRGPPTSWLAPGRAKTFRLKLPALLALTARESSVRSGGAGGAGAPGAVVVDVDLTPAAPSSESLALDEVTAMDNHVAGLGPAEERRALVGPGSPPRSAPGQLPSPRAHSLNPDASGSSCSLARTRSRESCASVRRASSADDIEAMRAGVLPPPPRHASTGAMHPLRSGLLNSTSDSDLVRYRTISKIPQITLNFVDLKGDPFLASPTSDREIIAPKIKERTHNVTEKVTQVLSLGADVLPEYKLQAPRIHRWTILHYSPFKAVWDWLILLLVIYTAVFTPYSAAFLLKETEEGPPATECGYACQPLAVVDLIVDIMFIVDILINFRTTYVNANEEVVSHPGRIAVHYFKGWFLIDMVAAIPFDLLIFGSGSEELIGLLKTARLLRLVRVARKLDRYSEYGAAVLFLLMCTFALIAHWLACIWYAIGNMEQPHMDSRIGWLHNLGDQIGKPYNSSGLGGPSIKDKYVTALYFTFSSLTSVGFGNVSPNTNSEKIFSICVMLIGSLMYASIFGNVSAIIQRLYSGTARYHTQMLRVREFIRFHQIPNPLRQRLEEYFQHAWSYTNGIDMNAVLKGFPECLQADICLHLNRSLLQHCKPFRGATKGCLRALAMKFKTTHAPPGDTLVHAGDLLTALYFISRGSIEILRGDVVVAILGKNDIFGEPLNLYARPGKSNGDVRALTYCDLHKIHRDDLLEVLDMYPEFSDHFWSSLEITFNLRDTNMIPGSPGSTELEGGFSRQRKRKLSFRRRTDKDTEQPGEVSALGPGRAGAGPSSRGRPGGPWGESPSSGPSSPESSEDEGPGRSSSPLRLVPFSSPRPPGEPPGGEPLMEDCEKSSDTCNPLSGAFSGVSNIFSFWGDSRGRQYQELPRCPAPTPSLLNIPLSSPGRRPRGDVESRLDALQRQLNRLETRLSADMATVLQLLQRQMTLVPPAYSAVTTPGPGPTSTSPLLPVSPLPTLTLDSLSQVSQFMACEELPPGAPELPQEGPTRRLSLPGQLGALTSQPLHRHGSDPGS
UniProt P03372, whole entry: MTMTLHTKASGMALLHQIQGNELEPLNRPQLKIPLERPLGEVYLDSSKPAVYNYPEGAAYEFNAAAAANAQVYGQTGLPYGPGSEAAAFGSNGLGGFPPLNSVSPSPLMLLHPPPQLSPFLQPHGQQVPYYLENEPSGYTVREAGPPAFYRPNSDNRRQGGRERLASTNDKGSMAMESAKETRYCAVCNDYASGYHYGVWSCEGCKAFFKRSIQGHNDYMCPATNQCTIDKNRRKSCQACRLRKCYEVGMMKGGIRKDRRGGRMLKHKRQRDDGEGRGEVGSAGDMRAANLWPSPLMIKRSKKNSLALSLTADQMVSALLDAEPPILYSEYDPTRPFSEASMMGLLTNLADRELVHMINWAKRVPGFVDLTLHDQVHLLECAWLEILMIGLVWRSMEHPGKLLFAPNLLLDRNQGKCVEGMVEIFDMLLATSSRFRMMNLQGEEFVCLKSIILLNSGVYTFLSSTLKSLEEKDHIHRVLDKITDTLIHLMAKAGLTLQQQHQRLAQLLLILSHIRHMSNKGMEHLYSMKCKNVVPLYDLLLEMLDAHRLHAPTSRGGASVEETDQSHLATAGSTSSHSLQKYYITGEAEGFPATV
UniProt P03372, 307-554: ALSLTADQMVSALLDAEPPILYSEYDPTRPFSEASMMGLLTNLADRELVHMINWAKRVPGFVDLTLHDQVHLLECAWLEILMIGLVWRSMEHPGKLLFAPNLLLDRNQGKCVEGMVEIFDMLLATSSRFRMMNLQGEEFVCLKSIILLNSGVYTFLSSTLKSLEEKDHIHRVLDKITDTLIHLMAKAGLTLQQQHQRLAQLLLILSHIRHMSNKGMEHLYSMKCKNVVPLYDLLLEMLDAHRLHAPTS

Assays:
hERG potassium channel = hERG potassium channel (Homo sapiens (Human), UniProt Q12809); assay: hERG binding assay (automated patch clamp, CHO cells); type: cell-based; conditions: CHO cell line, Nanion Syncropatch 384PE
Description: Reagent preparations include: • 1.
Cell preparations: • 1. If using cell culture; cells to be incubated at 30° C. for approximately 4-6 days prior to being used. Day of assay lift cells using accutase and re-suspend in 20 ml cell buffer to a density of 0.8 to 1e6 cells/ml. • 2. If using assay ready cryovials; rapidly thaw two cryovials at 37° C. and slowly pipette into 23 ml external solution • 3.
All compounds were acoustically dispensed in quadruplicate using a Labcyte Echo. […] Fill 384 well medium resistance 4 hole chips with 40 μl external buffer and perfuse internal buffer to the underside of plate. • 2. Dispense 20 μl of cells into each well of the chip followed by 20 μl of seal enhancer. • 3. Remove 40 μl of reagent from each well to the wash station, leaving a residual volume of 40 μl • 4. Dispense 40 μl of reference buffer with a removal step of 40 μl after 3 min, repeat this step. • 5.
hERG-mediated currents were elicited using a voltage step protocol consisting of acontinuous holding voltage of −80 mV, with a 500 ms step to 60 mV followed by a 500 ms step to −40 mV every 15 seconds. hERG current magnitude was measured automatically from the leak-subtracted traces by the Nanion software by taking the peak of the hERG “tail” current at −40 mV every 15 seconds and taking the last three of these responses for each concentration to generate the concentration-effect curve.
Calculation of results is performed using APC package within Genedata. For the routine normalization of well data with Neutral and Inhibitor control well groups as reference, GeneData Assay Analyzer uses the following equation to normalize the signal values to the desired signal range:
[formula] • x is the measured raw signal value of a well • is the median of the measured signal values for the Central Reference (Neutral) wells on a plate • is the median of the measured signal values for the Scale Reference (Inhibitor) wells on a plate • CR is the desired median normalized value for the Central Reference (Neutral) • SR is the desired median normalized value for the Scale Reference (Inhibitor)

[1] = biological target: Estrogen Receptor (ERα) in MCF-7 cells (Homo sapiens (Human), UniProt P03372); assay: MCF-7 ER down-regulation assay (immuno-fluorescence); type: cell-based
Description: The Echo uses acoustic technology to perform direct microplate-to-microplate transfers of DMSO compound solutions to assay plates. […] Cells were fixed at room temperature for 20 mins before being washed two times with 250 μL PBS/Proclin (PBS with a Biocide preservative) using a BioTek platewasher, 40 μL of PBS/Proclin was then added to all wells and the plates stored at 4° C. The fixing method described above was carried out on the Integrated Echo 2 workcell. Immunostaining was performed using an automated AutoElisa workcell. […] The plates were incubated overnight at 4° C. […] The mean total intensity was normalized for cell number giving the total intensity per cell. The data was exported into a suitable software package (such as Origin) to perform curve fitting analysis.

[2] = biological target: recombinant human Estrogen Receptor alpha ligand binding domain (ER alpha-LBD (GST)) (Homo sapiens (Human), UniProt P03372); assay: ERα binding assay (LanthaScreen TR-FRET competition); conditions: displacement of Fluormone ES2
Description: The ability of compounds to bind to isolated Estrogen Receptor Alpha Ligand binding domain (ER alpha-LBD (GST)) was assessed in competition assays using a LanthaScreen™ Time-Resolved Fluorescence Resonance Energy Transfer (TR-FRET) detection end-point. […] The assay principle is that ER alpha-LBD (GST) is added to a fluorescent ligand to form a receptor/fluorophore complex. A terbium-labelled anti-GST antibody (Product code PV3551) is used to indirectly label the receptor by binding to its GST tag, and competitive binding is detected by a test compound's ability to displace the fluorescent ligand, resulting in a loss of TR-FRET signal between the Tb-anti-GST antibody and the tracer. The assay was performed as follows with all reagent additions carried out using the Beckman Coulter BioRAPTR FRD microfluidic workstation: • 1. Acoustic dispense 120 nL of the test compound into a black low volume 384 well assay plates. • 2. Prepare 1×ER alpha-LBD/Tb-antiGST Ab in ES2 screening buffer and incubate for 15 minutes. • 3. […]
TR-FRET dose response data obtained with each compound was exported into a suitable software package (such as Origin or Genedata) to perform curve fitting analysis. Competitive ER alpha binding was expressed as an IC50 value.

Compound: COc1cc(NC2CN(CCCF)C2)ccc1[C@@H]1c2ccc3[nH]ncc3c2C[C@@H](C)N1CC(C)F (single isomer, unassigned) [Example 68]
- IC50 (hERG potassium channel): > 40000 nM
- IC50 [1]: 0.4 nM
- IC50 [2]: 15 nM

Compound: CC(F)CN1[C@H](c2ccc(NC3CN(CCCF)C3)cn2)c2ccc3[nH]ncc3c2C[C@H]1C (single isomer, unassigned) [Example 65]
- IC50 (hERG potassium channel): 31000 nM
- IC50 [1]: 1 nM

Compound: COc1cc(NC2CN(CCCF)C2)ccc1[C@@H]1c2ccc3[nH]ncc3c2C[C@@H](C)N1CC(C)F (single isomer, unassigned) [Example 67]
- IC50 (hERG potassium channel): 14000 nM
- IC50 [1]: 0.27 nM

Compound: CC(F)CN1[C@H](c2ccc(NC3CN(CCCF)C3)cn2)c2ccc3[nH]ncc3c2C[C@H]1C (single isomer, unassigned) [Example 66]
- IC50 (hERG potassium channel): 26000 nM
- IC50 [1]: 0.44 nM
- IC50 [2]: 6.2 nM

Compound: COC[C@](C)(F)CN1[C@H](c2ccc(OC3CN(CCCF)C3)cc2OC)c2ccc3[nH]ncc3c2C[C@H]1C (single isomer, unassigned) [Example 12]
- % downregulation (in parentheses) ([1]; maximum downregulation): 83%
